Measured values: patent US8883964B2, “Compositions comprising modified collagen and uses therefor” (The Johns Hopkins University, priority 2004, dated 2014)

Tests used:
[1] = molecular target: collagen (acid soluble, bovine type I) (bovine) (UniProt P02453); assay: TEM of reconstituted type I collagen fibers incubated with NP-3 at 25 °C
[2] = molecular target: collagen secreted by encapsulated chondrocytes (mostly type II collagen) (calves (chondrocytes isolated from 5- to 8-week-old calves)) (UniProt P02459); assay: cell-based or functional assay
[3] = molecular target: collagen (acid soluble, bovine type I) (bovine) (UniProt P02453); assay: retention of added type I collagen in the photopolymerized hydrogel after one week in PBS; hydroxyproline assay; no increase at 0.5 mg/mL

| Substance | NP-3 particles per unit area, gap regions (dark bands) relative to overlap regions (light bands) [1] [fold] | collagen content of the hydrogel after one week of chondrocyte culture, 2% CMP/PEODA against 1% CMP/PEODA [2] [%] | ratio of collagen content, PEODA gel to 2% CMP/PEODA gel [2] | collagen concentration at which retention reached saturation [3] [mg/mL] |
| --- | --- | --- | --- | --- |
| NP-3: gold nanoparticle functionalized with Cys-(Pro-Hyp-Gly)7 | 2 | – | – | – |
| CMP/PEODA hydrogel: ACRL-PEG-(Pro-Hyp-Gly)7-Tyr photopolymerized with poly(ethylene oxide) diacrylate | – | 37 | 2 fold (1:2) | 0.2 |
